This passage reports activation results from PubChem BioAssay AID624037 (The Scripps Research Institute Molecular Screening Center, 2012).

Amino acid sequences for entries named in this document (tags omitted).
UniProt P08912, whole entry, looked up: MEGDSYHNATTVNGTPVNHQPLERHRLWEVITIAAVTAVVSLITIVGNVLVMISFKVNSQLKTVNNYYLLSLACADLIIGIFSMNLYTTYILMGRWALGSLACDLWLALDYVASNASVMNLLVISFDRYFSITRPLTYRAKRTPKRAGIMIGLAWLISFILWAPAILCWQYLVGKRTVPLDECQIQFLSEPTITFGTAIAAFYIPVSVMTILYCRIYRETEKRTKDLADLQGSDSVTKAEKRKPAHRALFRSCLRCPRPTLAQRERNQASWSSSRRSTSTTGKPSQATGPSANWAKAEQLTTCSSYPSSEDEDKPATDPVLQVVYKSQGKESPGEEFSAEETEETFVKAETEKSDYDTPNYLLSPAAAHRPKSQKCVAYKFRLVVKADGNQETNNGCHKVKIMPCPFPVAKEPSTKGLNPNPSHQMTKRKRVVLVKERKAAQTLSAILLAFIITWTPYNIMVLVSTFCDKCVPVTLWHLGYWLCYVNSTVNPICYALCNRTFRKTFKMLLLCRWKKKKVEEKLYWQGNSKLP

The entries are a selection whose mix differs from that of the whole data set. Active and inactive are the calls of the source.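 The calls were made as follows: active = activation above the run's mean over test compounds plus 3 SD (cut at about 23% in these data); inactive = the rest.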

For this experiment, the target named is Muscarinic acetylcholine receptor M5 (Homo sapiens) (UniProt P08912). The experiment is described as follows: CHRM5 activators raising intracellular calcium – CHO-K1 cells, Fluo-8 calcium fluorescence, primary screen (AID 624037).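 Also: signal is peak over basal fluorescence ratio across the kinetic read.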 As to conditions: CHO-K1 hM5 cells, at 3 µM, stronger effect = higher value, 0% DMSO wells, 100% maximal acetylcholine response. In general terms: Calcium assays in cells follow changes in intracellular calcium, usually with a dye or a luminescent sensor.
Take `O=C(OC1CN2CCC1CC2)c1cccc(Cl)c1` (configuration not stated): the activation is inactive: -7.23%. To `O=[N+]([O-])c1ccc(O)c(/C=N/Nc2ccc([N+](=O)[O-])cc2[N+](=O)[O-])c1` belongs inactive: -3.72%; to `O=[N+]([O-])c1ncn(CCn2cnc([N+](=O)[O-])n2)n1`, inactive: -0.85%. For `CC(=O)NC(SC(=S)N(C)C)C(Cl)(Cl)Cl` (configuration not stated), the activation was inactive: 1.73%. Turning to `O=[As](O)(c1ccccc1)c1ccc(O)cc1`, the activation was inactive: -0.08%. As to `O=P1(N(CCCl)CCCl)OCCC2CCCCN21` (configuration not stated), the activation is inactive: 0.21%. On to `CC1C(=O)OC2CCN3CC4OC4(COC(=O)C(C)(O)C1(C)O)C23` (configuration not stated), for which the activation was inactive: 3.91%. To `CCNC(=S)/N=C(\N)N[N+](=O)[O-]` belongs inactive: -1.82%; to `O=C(NC1CCS(=O)(=O)C1)NP(=S)(Oc1ccccc1)Oc1ccccc1` (configuration not stated), inactive: -5.52%. As to `c1ccc(-c2nn[nH]n2)c(-c2nn[nH]n2)c1`, the activation is inactive: 0.26%. Regarding `C=C1C(=O)OC2CCN3CC=C(COC(=O)C(C)(O)C4(CO4)C1C)C23` (configuration not stated), the activation is inactive: -2.32%. Consider `Cc1ccc(NP(=O)(Oc2cccc(C)c2)Oc2cccc(C)c2)nc1`, for which the activation was inactive: 2.59%.

On to `CCN(C(=O)COC(=O)C(O)(c1ccccc1)c1ccccc1)c1c(N)n(Cc2ccccc2)c(=O)[nH]c1=O`, for which the activation was inactive: -3.59%. For `CC(NC(=O)COC(=O)C(O)(c1ccccc1)c1ccccc1)c1ccccc1` (configuration not stated), the activation is inactive: 0.93%. In the case of `Cc1ccccc1OP(=O)(Nc1ccccn1)Oc1ccccc1C`, the activation is inactive: -2.36%.

With `O=c1c2cc([N+](=O)[O-])ccc2[nH]c2c([N+](=O)[O-])cc([N+](=O)[O-])cc12`, the activation was inactive: 10.8%. For `CN(C)C(=O)Oc1noc2ccccc12`, the activation is inactive: -0.96%. With `COC(=O)c1cc2c(s1)N=C(c1ccccc1)N(C)P2(=O)N1CCOCC1` (configuration not stated), the activation was inactive: -0.93%. Consider `Cc1ccc(OP(=O)(Nc2ccccn2)Oc2ccc(C)cc2)cc1`, for which the activation is inactive: -1.7%. `CC(=O)NC(SC(=S)N(CC(C)C)CC(C)C)C(Cl)(Cl)Cl` (configuration not stated): the activation is inactive: 1.35%. As for `O=C(OC1CN2CCC1CC2)c1ccccc1` (configuration not stated), the activation is inactive: -1.43%.

For `CCC(=O)N1C2C3N(C(=O)CC)C1C1N(C(=O)CC)C(C(N1C(=O)CC)N3C(=O)CC)N2C(=O)CC`, the activation was inactive: -3.09%.

For `Clc1ccc(N2CCN(Cc3c[nH]c4ncccc34)CC2)cc1`, the activation is inactive: 2.59%. Regarding `CCc1cc(O)c([N+](=O)[O-])c(C)c1[N+](=O)[O-]`, the activation was inactive: 4.31%.

For the compound `CC(C)(C)C(=O)NC(Sc1ccccc1)C(Cl)(Cl)Cl` (configuration not stated), the activation was inactive: -3.58%. Turning to `O=P1(Nc2nc3ccc(Cl)cc3s2)COc2ccccc2O1` (configuration not stated), the activation is inactive: -3.36%.

Take `CCOc1ccc(C2=NCC(CBr)S2)cc1` (configuration not stated): the activation is inactive: -1.92%. As for `CC(=O)Nc1ccc([As](=O)(O)O)c(O)c1`, the activation is inactive: -0.04%.

For the compound `CC(=O)Nc1ccc(Oc2c([N+](=O)[O-])cc([N+](=O)[O-])cc2[N+](=O)[O-])cc1`, the activation is inactive: 2.5%.

As for `CC(=O)c1ccc(N2CC2c2ccncc2)cc1` (configuration not stated), the activation is inactive: 0.67%. In the case of `N#C/C(=C\c1ccc(N(CCBr)CCBr)cc1)C(N)=O`, the activation is inactive: -0.72%. To `COC(=O)C1(C)COP(=O)(NCc2ccccc2)OC1` (configuration not stated) belongs inactive: -0.18%. The same measure for `CC1C(=O)OC2CCN3CC=C(COC(=O)C(C)(O)C1(C)O)C23` (configuration not stated): inactive: -0.44%; for `Cc1ccccc1CN(C)C(=O)COC(=O)C(O)(c1ccccc1)c1ccccc1`: inactive: 2.06%. As to `CCN(CC)CCOC(=O)C(O)(c1ccccc1)c1ccccc1`, the activation was inactive: -1.4%. As for `C[C@H]1OP(=O)(Oc2ccccc2)C[C@@H]2O[C@@H]21` (some centres not stated), the activation is inactive: 6.1%.

On to `C[C@@H]1C=CCP(=O)(Oc2ccccc2)O1` (some centres not stated), for which the activation was inactive: -0.14%. With `COc1ccccc1OP(=O)(Nc1ccc(C)cn1)Oc1ccccc1OC`, the activation was inactive: 2.49%. Consider `CC(C)[C@H]1C(=O)O[C@@H]2CCN3CC=C(COC(=O)[C@](C)(O)[C@]1(C)O)[C@H]23`, for which the activation was inactive: -7.4%. For the compound `Cc1ccc(OP(=O)(Nc2nccs2)Oc2ccc(C)cc2)cc1`, the activation was inactive: 2.99%.

Take `CN1CCCC(OC(=O)C(c2ccccc2)c2ccccc2)C1` (configuration not stated): the activation is inactive: -15.2%. The same measure for `Clc1ccc(Cl)c(NC2=NCC(CBr)S2)c1` (configuration not stated): inactive: -5.46%; for `NC(=O)c1cc([N+](=O)[O-])cc([N+](=O)[O-])c1N`: inactive: 2.71%; for `CN(C(=O)Cc1ccc(Cl)c(Cl)c1)[C@H]1CCCC[C@H]1N1CCCC1`: inactive: -1.99%. To `Cc1ccc(N/C(=N/P(=O)(N2CCOCC2)N2CCOCC2)N2CCOCC2)cc1` belongs inactive: -0.78%; to `O=[N+]([O-])C1C(O)C(O)C([N+](=O)[O-])C(O)C1O` (configuration not stated), inactive: 0.51%; to `Nc1cc(N)c2nonc2c1[N+](=O)[O-]`, inactive: -0.08%. Consider `CC(C)CC(=O)NC(Sc1ccc(Cl)cc1)C(Cl)(Cl)Cl` (configuration not stated), for which the activation was inactive: -5.07%. As to `Oc1ccccc1CNc1ccccn1`, the activation is inactive: 0.05%. Turning to `O=C(NC(Sc1ccncn1)C(Cl)(Cl)Cl)c1ccccc1` (configuration not stated), the activation is inactive: 0.5%. Consider `Cc1cc(SC(NC(=O)c2ccc(F)cc2)C(Cl)(Cl)Cl)ncn1` (configuration not stated), for which the activation was inactive: -0.23%. The same measure for `CCOP(=O)(Nc1ccccc1)OCC`: inactive: -4.6%; for `Cc1ccc(NP(=O)(Oc2ccccc2F)Oc2ccccc2F)nc1`: inactive: 5.64%. On to `CN(C(=O)Cc1ccc(Cl)c(Cl)c1)[C@H]1CCCC[C@@H]1N1CCCC1`, for which the activation was inactive: -0.54%. For `CC(=O)Nc1ccc([As](=O)(O)O)cc1`, the activation was inactive: -5.45%. As to `O=C(O)c1ccccc1[As](=O)(O)O`, the activation was inactive: -2.56%. For `CCCC1OP(N)(=O)OCC1CC` (configuration not stated), the activation is inactive: 4.78%.

For `CC(=O)O[C@]1(C)C(=O)OC/C2=C/CN(C)CCC(OC(=O)[C@@](O)(C(C)O)C[C@H]1C)C2=O` (some centres not stated), the activation was inactive: -1.39%. Take `O=P(Nc1nc2ccc(Cl)cc2s1)(c1ccccc1)c1ccccc1`: the activation is inactive: -3.36%. Regarding `CN(C)P(=O)(N(C)C)n1c(Nc2ccccc2)nnc1-c1ccccc1`, the activation was inactive: -0.69%. For the compound `CCN(N=Nc1nonc1N)c1nonc1N`, the activation is inactive: -2.5%. To `Nc1cccc2ccc([As](=O)(O)O)cc12` belongs inactive: -2.03%.
